Assay results taken from ChEMBL document CHEMBL4422610, “HDAC as onco target: Reviewing the synthetic approaches with SAR study of their inhibitors” (Eur J Med Chem, 2018).

Sequences of proteins named here, by UniProt entry; tags and fusion partners are left off. A change or cut given only in a name is not applied to a line headed by its entry.
UniProt Q13547: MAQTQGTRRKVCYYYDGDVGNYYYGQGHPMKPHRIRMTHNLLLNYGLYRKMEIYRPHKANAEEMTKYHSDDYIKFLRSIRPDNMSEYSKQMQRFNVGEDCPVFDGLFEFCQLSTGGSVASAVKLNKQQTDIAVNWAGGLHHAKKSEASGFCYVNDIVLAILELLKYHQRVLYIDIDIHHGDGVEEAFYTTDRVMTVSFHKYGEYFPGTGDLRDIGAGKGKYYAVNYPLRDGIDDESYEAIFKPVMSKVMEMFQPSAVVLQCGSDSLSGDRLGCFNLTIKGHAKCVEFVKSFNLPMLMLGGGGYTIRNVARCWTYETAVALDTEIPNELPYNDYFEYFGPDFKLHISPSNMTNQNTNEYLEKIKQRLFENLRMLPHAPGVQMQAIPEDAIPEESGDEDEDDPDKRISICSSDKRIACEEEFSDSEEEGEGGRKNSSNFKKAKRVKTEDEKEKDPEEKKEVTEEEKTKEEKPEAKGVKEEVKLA
UniProt Q9UBN7: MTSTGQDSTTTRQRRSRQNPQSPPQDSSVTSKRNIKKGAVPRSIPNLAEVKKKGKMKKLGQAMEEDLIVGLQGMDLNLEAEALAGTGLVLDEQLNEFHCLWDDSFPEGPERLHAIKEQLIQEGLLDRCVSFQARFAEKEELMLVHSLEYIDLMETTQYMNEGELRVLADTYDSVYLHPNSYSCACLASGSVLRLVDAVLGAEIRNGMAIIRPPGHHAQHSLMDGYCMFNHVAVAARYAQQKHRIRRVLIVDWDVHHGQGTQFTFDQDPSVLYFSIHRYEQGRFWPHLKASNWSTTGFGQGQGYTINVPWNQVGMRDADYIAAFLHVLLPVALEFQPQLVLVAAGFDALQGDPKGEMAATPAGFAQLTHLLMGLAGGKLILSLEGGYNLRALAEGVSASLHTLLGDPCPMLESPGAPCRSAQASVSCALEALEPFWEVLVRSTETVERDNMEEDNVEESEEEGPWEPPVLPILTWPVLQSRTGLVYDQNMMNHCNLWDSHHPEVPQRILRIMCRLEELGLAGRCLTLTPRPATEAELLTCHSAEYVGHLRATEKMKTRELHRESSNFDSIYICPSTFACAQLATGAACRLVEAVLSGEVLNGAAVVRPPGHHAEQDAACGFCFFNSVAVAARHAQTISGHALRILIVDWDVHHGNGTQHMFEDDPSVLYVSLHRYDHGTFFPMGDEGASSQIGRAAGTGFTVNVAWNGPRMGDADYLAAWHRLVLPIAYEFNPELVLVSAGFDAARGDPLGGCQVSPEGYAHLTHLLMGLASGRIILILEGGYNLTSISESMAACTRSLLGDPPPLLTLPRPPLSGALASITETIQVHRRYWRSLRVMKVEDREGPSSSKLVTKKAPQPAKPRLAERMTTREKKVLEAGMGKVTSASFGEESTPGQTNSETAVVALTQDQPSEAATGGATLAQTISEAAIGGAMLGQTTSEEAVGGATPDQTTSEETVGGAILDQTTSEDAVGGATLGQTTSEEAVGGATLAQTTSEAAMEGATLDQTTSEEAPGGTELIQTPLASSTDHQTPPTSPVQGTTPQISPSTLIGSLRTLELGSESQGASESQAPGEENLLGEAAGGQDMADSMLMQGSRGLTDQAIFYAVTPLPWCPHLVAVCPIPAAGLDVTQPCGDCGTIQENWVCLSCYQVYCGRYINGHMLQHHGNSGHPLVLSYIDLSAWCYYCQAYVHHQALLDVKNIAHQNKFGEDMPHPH
UniProt Q92769: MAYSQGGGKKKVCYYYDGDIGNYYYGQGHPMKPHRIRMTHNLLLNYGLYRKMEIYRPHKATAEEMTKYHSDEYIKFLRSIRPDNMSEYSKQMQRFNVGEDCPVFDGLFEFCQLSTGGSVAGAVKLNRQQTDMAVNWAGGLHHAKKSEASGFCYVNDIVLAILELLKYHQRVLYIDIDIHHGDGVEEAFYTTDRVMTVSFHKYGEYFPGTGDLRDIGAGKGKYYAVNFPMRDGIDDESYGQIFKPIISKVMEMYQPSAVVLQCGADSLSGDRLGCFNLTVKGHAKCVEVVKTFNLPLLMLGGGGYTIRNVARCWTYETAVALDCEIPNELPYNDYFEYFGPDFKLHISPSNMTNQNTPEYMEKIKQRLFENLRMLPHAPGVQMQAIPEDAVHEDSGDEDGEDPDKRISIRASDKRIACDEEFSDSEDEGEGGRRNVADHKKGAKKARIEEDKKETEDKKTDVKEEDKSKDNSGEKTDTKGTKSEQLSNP
UniProt Q9UQL6: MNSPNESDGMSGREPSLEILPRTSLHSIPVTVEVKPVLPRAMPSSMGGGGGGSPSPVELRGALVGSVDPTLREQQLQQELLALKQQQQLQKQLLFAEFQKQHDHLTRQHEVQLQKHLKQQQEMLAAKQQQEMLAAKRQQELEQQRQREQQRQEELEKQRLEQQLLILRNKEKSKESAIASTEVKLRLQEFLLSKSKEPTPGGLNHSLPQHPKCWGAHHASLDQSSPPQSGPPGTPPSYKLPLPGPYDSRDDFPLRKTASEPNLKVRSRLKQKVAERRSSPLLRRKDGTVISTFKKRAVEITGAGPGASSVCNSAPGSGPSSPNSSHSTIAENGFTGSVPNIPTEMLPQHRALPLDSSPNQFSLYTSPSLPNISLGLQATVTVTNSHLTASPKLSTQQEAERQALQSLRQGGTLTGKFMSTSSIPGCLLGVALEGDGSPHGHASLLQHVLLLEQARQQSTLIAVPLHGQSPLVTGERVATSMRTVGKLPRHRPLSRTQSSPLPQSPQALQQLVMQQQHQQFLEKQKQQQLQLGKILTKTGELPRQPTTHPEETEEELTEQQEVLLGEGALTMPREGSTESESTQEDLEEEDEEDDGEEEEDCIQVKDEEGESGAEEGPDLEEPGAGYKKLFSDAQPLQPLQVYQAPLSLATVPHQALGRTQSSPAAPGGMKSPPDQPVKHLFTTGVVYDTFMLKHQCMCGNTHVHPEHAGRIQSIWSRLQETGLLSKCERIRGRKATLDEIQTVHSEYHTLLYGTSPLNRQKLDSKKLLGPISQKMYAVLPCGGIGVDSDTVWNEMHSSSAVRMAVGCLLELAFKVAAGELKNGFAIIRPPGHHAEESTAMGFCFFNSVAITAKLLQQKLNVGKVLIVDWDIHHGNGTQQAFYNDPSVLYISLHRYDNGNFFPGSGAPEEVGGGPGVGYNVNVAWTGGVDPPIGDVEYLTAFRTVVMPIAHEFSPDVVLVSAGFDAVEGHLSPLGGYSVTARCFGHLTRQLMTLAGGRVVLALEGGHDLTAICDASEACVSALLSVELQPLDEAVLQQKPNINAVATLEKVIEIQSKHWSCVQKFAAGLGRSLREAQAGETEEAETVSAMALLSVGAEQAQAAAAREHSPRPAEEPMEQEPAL
UniProt Q8WUI4: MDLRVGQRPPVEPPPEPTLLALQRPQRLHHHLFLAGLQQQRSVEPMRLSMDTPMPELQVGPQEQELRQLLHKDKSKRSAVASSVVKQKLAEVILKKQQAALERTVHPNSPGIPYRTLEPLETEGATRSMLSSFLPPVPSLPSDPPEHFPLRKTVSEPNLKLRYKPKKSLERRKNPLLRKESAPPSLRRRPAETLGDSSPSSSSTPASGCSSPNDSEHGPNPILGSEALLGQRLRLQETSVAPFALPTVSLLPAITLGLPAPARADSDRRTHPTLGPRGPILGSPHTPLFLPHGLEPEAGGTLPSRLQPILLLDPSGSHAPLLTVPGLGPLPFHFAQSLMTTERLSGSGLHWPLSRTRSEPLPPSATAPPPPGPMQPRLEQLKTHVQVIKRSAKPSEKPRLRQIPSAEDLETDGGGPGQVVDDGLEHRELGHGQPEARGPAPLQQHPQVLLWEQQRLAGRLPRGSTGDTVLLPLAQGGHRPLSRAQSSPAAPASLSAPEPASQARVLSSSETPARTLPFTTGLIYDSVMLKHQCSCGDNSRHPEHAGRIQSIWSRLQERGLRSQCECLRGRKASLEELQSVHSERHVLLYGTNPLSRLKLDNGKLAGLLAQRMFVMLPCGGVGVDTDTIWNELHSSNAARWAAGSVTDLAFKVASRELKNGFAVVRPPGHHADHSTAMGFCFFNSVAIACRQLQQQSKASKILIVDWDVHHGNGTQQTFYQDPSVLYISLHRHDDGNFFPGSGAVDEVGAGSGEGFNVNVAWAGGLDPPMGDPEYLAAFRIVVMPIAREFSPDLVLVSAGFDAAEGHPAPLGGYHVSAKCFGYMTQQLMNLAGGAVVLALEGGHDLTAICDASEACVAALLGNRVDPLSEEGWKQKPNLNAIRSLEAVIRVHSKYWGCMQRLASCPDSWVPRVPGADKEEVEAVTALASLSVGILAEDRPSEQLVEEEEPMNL
UniProt Q9BY41: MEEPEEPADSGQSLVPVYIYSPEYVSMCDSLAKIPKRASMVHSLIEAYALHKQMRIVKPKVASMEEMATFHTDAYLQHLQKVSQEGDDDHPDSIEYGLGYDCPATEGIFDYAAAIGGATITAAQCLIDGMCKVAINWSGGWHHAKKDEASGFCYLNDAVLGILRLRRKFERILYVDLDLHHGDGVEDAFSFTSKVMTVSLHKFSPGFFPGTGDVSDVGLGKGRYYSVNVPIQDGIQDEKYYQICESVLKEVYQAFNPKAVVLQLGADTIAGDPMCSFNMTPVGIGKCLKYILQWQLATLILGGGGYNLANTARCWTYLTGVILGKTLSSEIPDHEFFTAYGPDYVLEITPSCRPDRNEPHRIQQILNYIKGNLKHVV
UniProt Q9UKV0: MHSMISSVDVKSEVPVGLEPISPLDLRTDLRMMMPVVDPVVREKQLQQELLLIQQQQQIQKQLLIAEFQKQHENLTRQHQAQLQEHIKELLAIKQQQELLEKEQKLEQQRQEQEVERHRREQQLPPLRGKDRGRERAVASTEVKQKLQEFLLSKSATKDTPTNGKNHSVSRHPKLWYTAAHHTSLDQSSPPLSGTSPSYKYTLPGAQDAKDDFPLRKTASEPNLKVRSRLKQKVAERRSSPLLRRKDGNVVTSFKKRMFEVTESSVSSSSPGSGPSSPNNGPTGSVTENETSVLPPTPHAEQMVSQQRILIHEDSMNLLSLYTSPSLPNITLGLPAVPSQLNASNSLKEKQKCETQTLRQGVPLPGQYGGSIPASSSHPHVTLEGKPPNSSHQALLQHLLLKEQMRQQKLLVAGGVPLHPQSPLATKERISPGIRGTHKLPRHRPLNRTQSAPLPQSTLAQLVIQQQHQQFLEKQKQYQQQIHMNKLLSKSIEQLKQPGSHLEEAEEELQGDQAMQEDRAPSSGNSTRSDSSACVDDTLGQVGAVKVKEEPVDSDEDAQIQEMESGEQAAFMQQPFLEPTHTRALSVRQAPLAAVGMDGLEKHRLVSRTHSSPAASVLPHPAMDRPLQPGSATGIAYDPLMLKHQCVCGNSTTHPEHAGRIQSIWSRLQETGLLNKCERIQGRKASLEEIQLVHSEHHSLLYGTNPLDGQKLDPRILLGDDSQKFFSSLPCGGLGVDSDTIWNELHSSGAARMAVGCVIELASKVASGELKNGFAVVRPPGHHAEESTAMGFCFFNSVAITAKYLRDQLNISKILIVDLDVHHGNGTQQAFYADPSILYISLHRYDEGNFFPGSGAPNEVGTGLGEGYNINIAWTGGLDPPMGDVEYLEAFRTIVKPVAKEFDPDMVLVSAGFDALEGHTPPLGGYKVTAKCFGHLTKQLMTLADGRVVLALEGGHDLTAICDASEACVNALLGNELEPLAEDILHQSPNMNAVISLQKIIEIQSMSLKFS
UniProt Q969S8: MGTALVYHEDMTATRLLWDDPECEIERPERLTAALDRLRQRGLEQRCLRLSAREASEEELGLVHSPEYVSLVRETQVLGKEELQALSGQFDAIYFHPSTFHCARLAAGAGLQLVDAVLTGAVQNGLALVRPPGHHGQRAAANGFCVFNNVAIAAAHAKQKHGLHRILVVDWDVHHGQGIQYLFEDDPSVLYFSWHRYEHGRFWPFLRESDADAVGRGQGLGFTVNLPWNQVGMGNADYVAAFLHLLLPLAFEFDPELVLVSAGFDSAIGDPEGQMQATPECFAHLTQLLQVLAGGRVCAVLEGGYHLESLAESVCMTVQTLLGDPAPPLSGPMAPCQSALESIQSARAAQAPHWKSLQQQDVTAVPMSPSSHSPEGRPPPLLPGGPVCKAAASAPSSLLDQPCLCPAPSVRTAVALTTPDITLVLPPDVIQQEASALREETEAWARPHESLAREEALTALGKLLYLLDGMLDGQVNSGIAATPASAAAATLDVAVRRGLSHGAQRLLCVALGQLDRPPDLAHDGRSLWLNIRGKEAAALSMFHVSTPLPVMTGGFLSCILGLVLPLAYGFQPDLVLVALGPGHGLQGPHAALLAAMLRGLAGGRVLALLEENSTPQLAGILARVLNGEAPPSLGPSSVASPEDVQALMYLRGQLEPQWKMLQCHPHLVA

Biological target: Histone deacetylase (Homo sapiens) (UniProt Q13547+O15379+Q9UBN7+Q92769+Q9UQL6+Q8WUI4+Q9BY41+Q96DB2+P56524+Q9UKV0+Q969S8)
Experiment: Potency index, ratio of SAHA effect to test compound effect for inhibition of HDAC in human HeLa nuclear extract
Assay type: cell-based

SMILES	Ratio
O=C(CCCCCCn1cc(-c2ccccc2)nn1)NO	4
COc1ccc(-c2cn(CCCCCCC(=O)NO)nn2)cc1	2
